Assay outcomes (PubChem BioAssay)
The list is not random: actives were taken first. Their share in the collection is about 3.7%.
A549 tox = counter-screen for Nrf2 inhibitors: cytotoxicity in A549 cells; A549 ARE-Fluc cells, CellTiter-Fluor viability, 18-24 h; Potency, µM (titrated, usually from 46 µM), without a hit: at the highest dose activity change, negative = cytotoxicity, actives largely listed as inhibitors; hit rate 0.16% among 390,000; AID 504648; also: potency is read from the fitted curve at half-maximal effect; % is scaled to controls: 0 for no effect and ±100 for the full control effect
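A549 ARE_Fluc cells in 5% FBS OPTI-MEM were exposed to compounds in concentration-response for 18-24 h at 37 deg C. Viability was read by CellTiter-Fluor fluorescence (Ex 405/Em 525) after 30 min, before the luciferase read.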
Nrf2 inh = Nrf2 pathway inhibition. A549 ARE-Fluc reporter, luciferase luminescence, 18-24 h. Potency, µM (titrated, usually from 46 µM), inactives show at the highest dose activity change, negative = inhibition, most hits filed as inhibitors. hit rate 2.1% among 360,000. AID 504444; also: potency is read from the fitted curve at half-maximal effect; % is scaled to controls: 0 for no effect and ±100 for the full control effect; nearly all actives have a fitted effect of over 60% in size
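A549 ARE_Fluc cells, 5000/well, 5% FBS OPTI-MEM; compounds in dose-response, 18-24 h at 37 °C/5% CO2; CellTiter-Fluor viability read (Ex 405/Em 525), then BugLite luciferase luminescence = Nrf2 activity.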
miR-21 reporter = raises the signal of a miR-21 reporter; HeLa miR-21 FLuc reporter, luciferase, 48 h; Potency, µM (top dose mostly 38.3 µM), for inactives: at the highest dose reporter change, positive = more light; AID 2288; 340,000 tested, under 10 active; active = well fitted rising curve with a large enough effect; inconclusive = small, poorly fitted or top-dose-only effect; inactive = no such curve, though single readings can be large or run the other way;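 note: % of control where 0% means no effect; miR-21 action dims this reporter so a rising signal means less miR-21 action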
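Luminescence from a firefly luciferase reporter carrying a miR-21 binding site downstream, stably expressed under a CMV promoter in HeLa cells that make miR-21 endogenously, reports miRNA modulation after 48 h compound exposure up to approximately 40uM final.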
TCR act = activators of T cell receptors. primary human leukocytes, anti-CD3, IL-2 HTRF, 48 h. Potency, µM (highest dose often 9.22 µM), without a hit: at the highest dose activation of IL-2 secretion, hits mostly activators. 330,000 tested, under 10 active; also: % of control where 0% means no effect
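Primary human leukocytes were stimulated with a-CD3 beads plus compounds for 48 hr without co-stimulation; secreted IL-2 was quantified by HTRF using a-IL-2-K (europium cryptate) and a-IL-2-d2, excited at 320nm with acceptor emission read at 665nm.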
Nrf2 ARE act = activates Nrf2 signaling; AID 624171; AREc32 ARE-luciferase reporter (MCF7-derived line), luminescence, 24 h; hit rate 0.31% among 410,000; Potency, µM (titrated, usually from 46.1 µM), without a hit: at the highest dose activation, usual class: activators; also: potency is read from the fitted curve at half-maximal effect; % of control where 0% means no effect; nearly all actives have a fitted effect of over 65% in size
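Each well held 1000 AREc32 cells, which were incubated with compound for 24 hr at 37 deg C after overnight attachment, and ARE reporter activity was quantified by firefly luciferase luminescence.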
ClpP mod = qHTS Assay for Activators of ClpP. ATP-dependent Clp protease proteolytic subunit (Bacillus subtilis (strain 168)), P80244. purified B. subtilis ClpP, FRET peptide cleavage, 20 min. Potency, µM (doses to about 57.5 µM), without a hit: top-dose activity change, negative = active. hit rate 1.9% among 340,000. AID 651965, 2013; active = well fitted falling curve with a large enough effect; inconclusive = small, poorly fitted or top-dose-only effect; inactive = no such curve, though single readings can be large or run the other way; also: potency is read from the fitted curve at half-maximal effect; the source files actives as falling curves though it sought activators and does not explain the sign; nearly all actives have a fitted effect of over 65% in size
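Purified B. subtilis ClpP, 10 microg/mL final in Tris/HCl pH8 with KCl, BSA, glycerol and Tween-20, cleaved an Abz/nitrotyrosine-quenched decapeptide. Fluorescence (ex 320, em 430) was read at 0 and 20 min at room temperature. Delta was normalized to 5.8 microM ADEP and DMSO/no-enzyme controls.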
An asterisk follows results filed as active; ? = inconclusive; nt = no result; [ ] = dose if it differs, or a comment. Unless noted, calls follow the shape of the dose curve; as a rule, active = well fitted curve in the direction sought with a large enough effect; inconclusive = small, poorly fitted or top-dose-only effect, or another doubt; inactive = no such curve, though single readings can be large; an effect the other way counts as inactive or inconclusive.

Short forms – A = A549 tox; B = Nrf2 inh; C = miR-21 reporter; D = TCR act; E = Nrf2 ARE act; F = ClpP mod
1. Cc1cccc(NC(=O)Nc2nnc(N3CCCCC3C)s2)c1C (configuration not stated)
  A: -1.8% | B: 14.4% | C: -8.4% | D: -3.1% | E: -1.3% | F: 0.2%

2. CCOc1cnc(-c2ccc(OC)cc2)o1
  A: -3.3% | B: nt | C: -53.5% | D: -7.4% | E: 4.7% | F: 25.1µM*

3. CCOC(=O)Cc1ccc(NC(=O)NCc2c(-n3cccc3)sc3c2CCCC3)cc1
  A: 0.9% | B: -0.1% | C: 1.2% | D: nt | E: 0.0% | F: -3.5%

4. COCCNc1nc(NCC2CCCCC2)c2sc(-c3ccccc3)cc2n1
  A: nt | B: nt | C: nt | D: nt | E: 0.7%[9.22 µM] | F: 25.1µM*

5. c1ccc(-c2cc3nc(NCC4CC4)nc(NCC4CCCCC4)c3s2)cc1
  A: nt | B: nt | C: nt | D: nt | E: -4.8% | F: 20µM*

6. COCCNc1nc(NCCOc2ccccc2Cl)c2sc(-c3ccccc3)cc2n1
  A: nt | B: nt | C: nt | D: nt | E: 0.2% | F: -26.8%

7. CC(C)(C)S(=O)N1Cc2cc(CO)cc(CCO)c2[C@@H]1CCO (some centres not stated)
  A: 2.9% | B: 7.6% | C: nt | D: -5.5% | E: 0.6% | F: 0.3%

8. Cn1c(N)c(C(=O)COC(=O)CNC(=O)c2ccccc2Cl)c(=O)n(C)c1=O
  A: -1.4% | B: -2.7% | C: nt | D: 0.8% | E: -0.1% | F: 1.1%

9. Cn1c(N)c(C(=O)COC(=O)CNS(=O)(=O)c2ccc(Cl)c(Cl)c2)c(=O)n(C)c1=O
  A: 0.0% | B: 10.8% | C: -4.9% | D: 1.2%[46.1 µM] | E: -0.1% | F: 31.6µM*

10. COc1cc2cc(C#N)c(SCC(=O)OC(C)C)nc2cc1OC
  A: 0.4% | B: ? | C: nt | D: nt | E: nt | F: -2.6%

11. COc1cc(C=Nc2ccccc2C(=O)Nc2ccccc2)cc(OC)c1OC
  A: 12.8% | B: -5.0% | C: -24.0% | D: 3.7%[46.1 µM] | E: 0.2% | F: 25.1µM*

12. COc1ccc(-c2cc(C(F)(F)F)n3nc(C(=O)Nc4cccc(Cl)c4Cl)cc3n2)cc1OC
  A: 5.4% | B: 3.5% | C: -6.1% | D: nt | E: 1.2% | F: -3.1%

13. COC1=C(C)C(=O)C2=C(C1=O)C1C3CC4=C(C(=O)C(OC)=C(C)C4=O)C(CNC(=O)C(C)=O)N3C(C#N)C(C2)N1C (configuration not stated)
  A: 9.2µM* | B: 0.581µM* | C: nt | D: 0.8% | E: -2.4% | F: -1.7%

14. Cc1ccc2c(c1)-c1cc(C)nn1C(c1ccc3c(c1)OCO3)N2 (configuration not stated)
  A: -18.8% | B: -15.1% | C: -25.3% | D: 1.8% | E: 3.3% | F: 12.6µM*

15. Cc1cc2n(n1)C(c1sccc1C)Nc1ccccc1-2 (configuration not stated)
  A: 11.2% | B: 4.6% | C: -16.2% | D: -0.1% | E: 3.0% | F: 17.8µM*

Part of the list above in order of length of the SMILES, rising:
Short forms – A = A549 tox; B = Nrf2 inh; C = miR-21 reporter; D = TCR act; E = Nrf2 ARE act; F = ClpP mod
15. Cc1cc2n(n1)C(c1sccc1C)Nc1ccccc1-2 (configuration not stated)
  A: 11.2% | B: 4.6% | C: -16.2% | D: -0.1% | E: 3.0% | F: 17.8µM*

10. COc1cc2cc(C#N)c(SCC(=O)OC(C)C)nc2cc1OC
  A: 0.4% | B: ? | C: nt | D: nt | E: nt | F: -2.6%

5. c1ccc(-c2cc3nc(NCC4CC4)nc(NCC4CCCCC4)c3s2)cc1
  A: nt | B: nt | C: nt | D: nt | E: -4.8% | F: 20µM*

The list continues:
Short forms – A = A549 tox; B = Nrf2 inh; C = miR-21 reporter; D = TCR act; E = Nrf2 ARE act; F = ClpP mod
16. Cc1cc2n(n1)C(c1ccc3c(c1)OCO3)Nc1ccccc1-2 (configuration not stated)
  A: -1.3% | B: 7.4% | C: -8.6% | D: -1.3% | E: 8.5% | F: ?

17. Cc1cc2n(n1)C(c1ccccc1)Nc1ccccc1-2 (configuration not stated)
  A: -1.5% | B: -21.2% | C: -6.1% | D: -4.6% | E: 2.1% | F: 25.1µM*

18. Cc1ccc2c(c1)-c1cc(C)nn1C(c1sccc1C)N2 (configuration not stated)
  A: 2.2% | B: -25.9% | C: -13.1% | D: 1.3% | E: 2.2% | F: 15.8µM*

19. CCCCn1c(N)c(N(CC(C)C)C(=O)c2ccc(F)c(S(=O)(=O)N3CCOCC3)c2)c(=O)[nH]c1=O
  A: -4.6% | B: -6.4% | C: nt | D: -6.4% | E: 0.2% | F: -0.7%

20. Cc1cccc(C(=O)Nc2ccc(S(=O)(=O)N3CCOCC3)cc2C)c1
  A: 4.3% | B: -7.3% | C: -3.0% | D: nt | E: 0.0% | F: 1.5%

21. Cc1cc2n(n1)C(c1sccc1C)Nc1c(C)cccc1-2 (configuration not stated)
  A: nt | B: 16.1% | C: -17.2% | D: 8.8% | E: 0.2% | F: 28.2µM*

22. O=S(=O)(c1ccc2c(c1)OCCO2)N1CCN(S(=O)(=O)c2c(Cl)cc(C(F)(F)F)cc2Cl)CC1
  A: -5.8% | B: -5.2% | C: nt | D: nt | E: nt | F: nt

23. O=C(Cc1ccc(S(=O)(=O)N2CCOCC2)s1)Nc1ccccc1Br
  A: -8.5% | B: -26.0% | C: -6.3% | D: -0.1% | E: 0.0% | F: -0.5%

24. O=C(Cc1ccc(S(=O)(=O)N2CCOCC2)s1)Nc1ccccc1N1CCOCC1
  A: -15.9% | B: -24.2% | C: 10.7% | D: 6.5% | E: -0.4% | F: 14.1µM*

25. CN(C)C(CNC(=O)c1cc(-c2ccco2)nc2ccccc12)c1ccccc1 (configuration not stated)
  A: -10.7% | B: ? | C: nt | D: -2.9% | E: 12.6µM* | F: nt

26. O=C(NCC1CCCO1)c1cc(-c2ccco2)nc2ccccc12 (configuration not stated)
  A: -2.8% | B: 2.0% | C: -1.6% | D: 2.0% | E: 11.2µM* | F: ?

27. Cn1c(=O)c2c(-c3ccc(Br)cc3)n(CCc3ccccc3)cc2n(C)c1=O
  A: -12.8% | B: ? | C: 24.0% | D: nt | E: -1.8% | F: 4.1%

28. Cc1ccc(-n2nc3c(=O)n(C(C)C(=O)NCCc4cccs4)nc(C)c3c2C)cc1 (configuration not stated)
  A: -12.4% | B: 11.6µM* | C: 28.7% | D: -7.2% | E: 3.1% | F: -1.8%

29. Cc1ccc(-n2nc3c(=O)n(CC(=O)NC(C)CCc4ccccc4)nc(C)c3c2C)cc1 (configuration not stated)
  A: -13.0% | B: 5.17µM* | C: 10.3% | D: 4.4% | E: 0.5% | F: -0.7%

30. CCC(C(=O)Nc1cc(F)ccc1F)n1nc(C)c2c(C)n(-c3ccc(C)cc3)nc2c1=O (configuration not stated)
  A: ? | B: 23.1µM* | C: ? | D: -5.8% | E: -0.2% | F: -0.8%

Continued.
Short forms – A = A549 tox; B = Nrf2 inh; C = miR-21 reporter; D = TCR act; E = Nrf2 ARE act; F = ClpP mod
31. Cc1ccc(-n2nc3c(=O)n(CC(=O)NCc4ccccc4)nc(C)c3c2C)cc1
  A: -1.3% | B: ? | C: -0.8% | D: -4.8% | E: -1.0% | F: 0.0%

32. CCC(C(=O)Nc1ccccc1F)n1nc(C)c2c(C)n(-c3ccccc3)nc2c1=O (configuration not stated)
  A: 0.1% | B: -12.3% | C: -2.8% | D: -2.6% | E: 0.2% | F: -1.1%

33. CCC(C(=O)NC1CC1)n1nc(C)c2c(C)n(-c3ccc(C)cc3)nc2c1=O (configuration not stated)
  A: -7.8% | B: 16.4µM* | C: 8.0% | D: -2.3% | E: 2.6% | F: -4.0%

34. Cc1nn(C(C)C(=O)NCc2cccs2)c(=O)c2nn(-c3ccccc3)c(C)c12 (configuration not stated)
  A: -13.3% | B: -17.5% | C: 3.3% | D: -3.4% | E: 0.1% | F: -2.5%

35. COc1ccc(Cl)cc1NS(=O)(=O)c1c(C)nc2scc(C)n2c1=O
  A: 4.3% | B: 1.5% | C: -0.5% | D: nt | E: -1.1% | F: 0.2%

36. COc1ccc(CNC(=O)C(C)n2nc(C)c3c(C)n(-c4ccc(C)cc4)nc3c2=O)cc1 (configuration not stated)
  A: -0.5% | B: ? | C: 16.6% | D: 4.8% | E: -0.7% | F: -1.0%

37. CCC(C(=O)NCc1ccc(OC)c(OC)c1)n1nc(C)c2c(C)n(-c3ccc(C)cc3)nc2c1=O (configuration not stated)
  A: -18.8% | B: 25.9µM* | C: ? | D: nt | E: -0.5% | F: 0.4%
